These are literature values, as cited in article PMC12627723, “Antineoplastic 4-piperidone-1-phosphonothioates with potential multi-targeted inhibitory properties” (Scientific Reports, 2025).

The data set concerns A431 (skin/squamous) cancer cell line. Particulars: read-out: IC50, (µM) ± SEM, A431 (standard drugs); standard reference drugs.

The IC50 is the concentration that inhibits the measured activity by half. As to `O=c1[nH]cc(F)c(=O)[nH]1` [5-Fluorouracil], the IC50 was 23.4 ± 2.09 µM.
